Laboratory results as given in patent US20260384438A1, “PYRROLOPYRIMIDINE CARBOXAMIDES” (published 2026).

Amino acid sequences for entries named in this document (tags omitted). Residues count along the entry.
UniProt Q16584, whole entry: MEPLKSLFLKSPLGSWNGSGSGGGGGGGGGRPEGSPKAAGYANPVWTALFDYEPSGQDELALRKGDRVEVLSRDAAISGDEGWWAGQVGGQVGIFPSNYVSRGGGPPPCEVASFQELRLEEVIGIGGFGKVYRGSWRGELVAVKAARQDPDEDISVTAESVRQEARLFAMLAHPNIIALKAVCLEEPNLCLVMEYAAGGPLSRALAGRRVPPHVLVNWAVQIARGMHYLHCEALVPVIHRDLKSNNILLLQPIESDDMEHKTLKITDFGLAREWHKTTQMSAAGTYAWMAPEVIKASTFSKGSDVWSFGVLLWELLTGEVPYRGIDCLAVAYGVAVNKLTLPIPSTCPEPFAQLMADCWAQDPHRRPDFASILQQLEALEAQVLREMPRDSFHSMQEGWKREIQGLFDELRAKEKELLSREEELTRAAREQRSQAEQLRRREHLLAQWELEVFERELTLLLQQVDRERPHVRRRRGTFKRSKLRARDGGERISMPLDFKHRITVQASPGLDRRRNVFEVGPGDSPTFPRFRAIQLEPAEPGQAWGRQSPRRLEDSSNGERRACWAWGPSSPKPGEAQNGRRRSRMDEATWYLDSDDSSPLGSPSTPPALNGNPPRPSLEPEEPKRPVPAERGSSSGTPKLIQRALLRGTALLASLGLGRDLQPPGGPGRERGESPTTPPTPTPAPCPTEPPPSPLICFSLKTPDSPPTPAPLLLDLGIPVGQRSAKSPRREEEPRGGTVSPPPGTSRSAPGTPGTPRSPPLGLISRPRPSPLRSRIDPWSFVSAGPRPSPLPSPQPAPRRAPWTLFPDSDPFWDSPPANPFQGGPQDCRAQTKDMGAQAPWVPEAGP
UniProt Q8IYT8, whole entry: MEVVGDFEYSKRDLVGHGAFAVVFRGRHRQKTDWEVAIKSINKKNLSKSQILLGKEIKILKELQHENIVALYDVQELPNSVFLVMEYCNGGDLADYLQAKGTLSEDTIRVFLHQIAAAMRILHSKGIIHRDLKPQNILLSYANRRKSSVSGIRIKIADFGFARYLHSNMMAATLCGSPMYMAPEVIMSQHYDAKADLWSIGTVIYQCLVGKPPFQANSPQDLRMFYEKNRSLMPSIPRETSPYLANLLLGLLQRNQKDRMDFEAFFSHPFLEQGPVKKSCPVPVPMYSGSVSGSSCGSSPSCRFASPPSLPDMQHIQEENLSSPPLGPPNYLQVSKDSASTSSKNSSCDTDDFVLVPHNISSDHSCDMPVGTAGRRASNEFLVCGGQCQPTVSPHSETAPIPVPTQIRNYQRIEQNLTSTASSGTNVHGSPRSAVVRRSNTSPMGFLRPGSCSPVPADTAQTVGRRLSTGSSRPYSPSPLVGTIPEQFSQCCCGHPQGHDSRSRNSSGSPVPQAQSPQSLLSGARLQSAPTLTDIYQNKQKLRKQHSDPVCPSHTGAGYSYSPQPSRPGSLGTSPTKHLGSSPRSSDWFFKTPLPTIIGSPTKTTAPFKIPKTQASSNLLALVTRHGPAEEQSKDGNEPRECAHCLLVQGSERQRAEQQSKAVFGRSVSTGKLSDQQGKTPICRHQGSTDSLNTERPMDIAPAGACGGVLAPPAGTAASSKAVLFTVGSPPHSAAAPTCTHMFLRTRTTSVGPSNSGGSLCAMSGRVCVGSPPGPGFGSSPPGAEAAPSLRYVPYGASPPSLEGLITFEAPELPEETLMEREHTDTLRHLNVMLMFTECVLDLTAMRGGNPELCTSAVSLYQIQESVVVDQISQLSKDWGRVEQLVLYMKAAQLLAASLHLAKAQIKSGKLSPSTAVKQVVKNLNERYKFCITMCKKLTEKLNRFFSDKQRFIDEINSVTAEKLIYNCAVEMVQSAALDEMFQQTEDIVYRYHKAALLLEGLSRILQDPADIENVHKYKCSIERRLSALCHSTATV
UniProt Q8N5S9, whole entry: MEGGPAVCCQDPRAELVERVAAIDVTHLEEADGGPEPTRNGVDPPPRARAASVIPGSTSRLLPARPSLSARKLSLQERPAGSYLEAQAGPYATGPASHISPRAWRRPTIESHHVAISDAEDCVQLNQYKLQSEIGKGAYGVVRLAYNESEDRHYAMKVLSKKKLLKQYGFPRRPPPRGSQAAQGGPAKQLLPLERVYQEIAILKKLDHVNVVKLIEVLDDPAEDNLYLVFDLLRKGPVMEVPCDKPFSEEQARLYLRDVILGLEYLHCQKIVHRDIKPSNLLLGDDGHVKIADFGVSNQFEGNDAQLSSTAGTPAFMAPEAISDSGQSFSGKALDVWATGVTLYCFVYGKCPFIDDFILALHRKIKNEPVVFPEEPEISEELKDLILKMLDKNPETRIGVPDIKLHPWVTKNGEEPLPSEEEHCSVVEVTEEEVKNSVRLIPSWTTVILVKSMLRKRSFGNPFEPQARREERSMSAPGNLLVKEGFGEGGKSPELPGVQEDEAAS
UniProt Q9H093, whole entry: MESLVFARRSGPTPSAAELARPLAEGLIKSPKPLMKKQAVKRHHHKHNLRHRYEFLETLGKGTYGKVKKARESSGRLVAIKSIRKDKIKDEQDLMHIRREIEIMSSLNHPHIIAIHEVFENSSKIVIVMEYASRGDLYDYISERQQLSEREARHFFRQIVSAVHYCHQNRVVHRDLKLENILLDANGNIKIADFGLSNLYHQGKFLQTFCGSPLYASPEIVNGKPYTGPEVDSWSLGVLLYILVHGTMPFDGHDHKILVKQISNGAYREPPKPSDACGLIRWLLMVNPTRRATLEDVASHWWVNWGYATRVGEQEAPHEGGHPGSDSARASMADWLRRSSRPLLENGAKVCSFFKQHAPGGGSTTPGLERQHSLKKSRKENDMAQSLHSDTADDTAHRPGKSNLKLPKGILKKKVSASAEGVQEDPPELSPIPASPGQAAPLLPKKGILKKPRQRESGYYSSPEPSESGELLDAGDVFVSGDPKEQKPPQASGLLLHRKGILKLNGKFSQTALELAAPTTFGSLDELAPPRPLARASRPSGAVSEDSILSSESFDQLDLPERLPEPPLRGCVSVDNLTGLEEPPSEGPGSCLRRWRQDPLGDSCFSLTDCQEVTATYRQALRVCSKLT
UniProt P15056, whole entry: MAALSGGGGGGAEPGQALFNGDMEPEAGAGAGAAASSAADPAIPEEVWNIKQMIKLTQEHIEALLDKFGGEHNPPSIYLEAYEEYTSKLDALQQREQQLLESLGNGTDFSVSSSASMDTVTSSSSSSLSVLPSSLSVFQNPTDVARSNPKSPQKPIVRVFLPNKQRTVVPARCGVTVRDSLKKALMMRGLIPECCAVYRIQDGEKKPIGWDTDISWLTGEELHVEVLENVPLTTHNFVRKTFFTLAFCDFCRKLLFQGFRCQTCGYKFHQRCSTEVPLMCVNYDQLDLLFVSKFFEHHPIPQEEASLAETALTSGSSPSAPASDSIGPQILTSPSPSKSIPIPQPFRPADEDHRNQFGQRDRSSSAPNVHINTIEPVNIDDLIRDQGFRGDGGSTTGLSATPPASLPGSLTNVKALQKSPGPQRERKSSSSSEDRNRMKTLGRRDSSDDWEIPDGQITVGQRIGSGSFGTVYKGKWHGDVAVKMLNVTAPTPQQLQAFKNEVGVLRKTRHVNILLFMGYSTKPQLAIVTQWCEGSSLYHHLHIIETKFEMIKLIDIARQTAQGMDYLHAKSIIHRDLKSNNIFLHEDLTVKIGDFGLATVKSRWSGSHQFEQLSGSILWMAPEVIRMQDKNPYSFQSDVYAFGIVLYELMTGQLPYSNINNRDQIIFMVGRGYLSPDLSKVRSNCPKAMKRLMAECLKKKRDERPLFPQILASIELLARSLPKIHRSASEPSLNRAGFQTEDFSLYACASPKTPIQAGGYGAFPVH
UniProt Q15208, whole entry: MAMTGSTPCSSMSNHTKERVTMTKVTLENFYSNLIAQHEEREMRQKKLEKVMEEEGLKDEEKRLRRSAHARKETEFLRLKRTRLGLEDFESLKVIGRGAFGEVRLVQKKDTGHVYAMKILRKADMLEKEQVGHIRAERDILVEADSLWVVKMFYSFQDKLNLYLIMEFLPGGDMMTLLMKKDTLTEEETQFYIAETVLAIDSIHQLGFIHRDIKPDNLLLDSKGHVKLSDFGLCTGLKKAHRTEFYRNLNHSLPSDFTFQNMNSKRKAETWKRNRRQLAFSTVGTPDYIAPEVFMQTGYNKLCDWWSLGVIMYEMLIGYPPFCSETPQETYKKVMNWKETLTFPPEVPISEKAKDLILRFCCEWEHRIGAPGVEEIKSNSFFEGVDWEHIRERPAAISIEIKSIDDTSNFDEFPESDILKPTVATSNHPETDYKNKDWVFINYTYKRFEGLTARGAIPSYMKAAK
UniProt P42680, whole entry: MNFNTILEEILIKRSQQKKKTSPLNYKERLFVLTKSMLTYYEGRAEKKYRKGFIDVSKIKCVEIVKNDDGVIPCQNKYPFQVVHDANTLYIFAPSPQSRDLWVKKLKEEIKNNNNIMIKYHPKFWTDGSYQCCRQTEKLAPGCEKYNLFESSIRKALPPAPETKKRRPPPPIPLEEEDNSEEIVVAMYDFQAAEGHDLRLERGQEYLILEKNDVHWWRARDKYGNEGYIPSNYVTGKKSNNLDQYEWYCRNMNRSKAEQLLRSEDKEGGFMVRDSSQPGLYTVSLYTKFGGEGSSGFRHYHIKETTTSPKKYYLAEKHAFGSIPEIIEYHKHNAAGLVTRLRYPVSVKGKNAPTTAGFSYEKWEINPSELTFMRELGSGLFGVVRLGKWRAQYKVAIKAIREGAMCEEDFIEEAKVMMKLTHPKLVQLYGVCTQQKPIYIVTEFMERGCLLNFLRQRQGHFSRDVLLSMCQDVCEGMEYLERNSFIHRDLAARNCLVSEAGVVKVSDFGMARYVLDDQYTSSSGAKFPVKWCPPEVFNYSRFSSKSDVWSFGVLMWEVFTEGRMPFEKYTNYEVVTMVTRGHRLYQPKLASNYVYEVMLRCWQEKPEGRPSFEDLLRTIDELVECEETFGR
UniProt P27037, 20-513 limits assumed: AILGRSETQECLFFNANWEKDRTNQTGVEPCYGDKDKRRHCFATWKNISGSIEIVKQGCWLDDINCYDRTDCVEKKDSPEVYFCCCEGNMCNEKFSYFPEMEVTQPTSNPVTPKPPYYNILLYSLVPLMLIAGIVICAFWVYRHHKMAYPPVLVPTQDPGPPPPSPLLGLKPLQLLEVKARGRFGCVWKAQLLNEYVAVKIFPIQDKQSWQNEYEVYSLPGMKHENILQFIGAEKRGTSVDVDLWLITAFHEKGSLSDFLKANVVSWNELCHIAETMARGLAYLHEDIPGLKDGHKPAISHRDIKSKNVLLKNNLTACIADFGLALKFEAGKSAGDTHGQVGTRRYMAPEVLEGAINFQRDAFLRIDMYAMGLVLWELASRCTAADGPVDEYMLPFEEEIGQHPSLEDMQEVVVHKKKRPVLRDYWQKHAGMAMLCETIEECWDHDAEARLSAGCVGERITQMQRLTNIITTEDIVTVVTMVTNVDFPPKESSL
UniProt O43353, whole entry: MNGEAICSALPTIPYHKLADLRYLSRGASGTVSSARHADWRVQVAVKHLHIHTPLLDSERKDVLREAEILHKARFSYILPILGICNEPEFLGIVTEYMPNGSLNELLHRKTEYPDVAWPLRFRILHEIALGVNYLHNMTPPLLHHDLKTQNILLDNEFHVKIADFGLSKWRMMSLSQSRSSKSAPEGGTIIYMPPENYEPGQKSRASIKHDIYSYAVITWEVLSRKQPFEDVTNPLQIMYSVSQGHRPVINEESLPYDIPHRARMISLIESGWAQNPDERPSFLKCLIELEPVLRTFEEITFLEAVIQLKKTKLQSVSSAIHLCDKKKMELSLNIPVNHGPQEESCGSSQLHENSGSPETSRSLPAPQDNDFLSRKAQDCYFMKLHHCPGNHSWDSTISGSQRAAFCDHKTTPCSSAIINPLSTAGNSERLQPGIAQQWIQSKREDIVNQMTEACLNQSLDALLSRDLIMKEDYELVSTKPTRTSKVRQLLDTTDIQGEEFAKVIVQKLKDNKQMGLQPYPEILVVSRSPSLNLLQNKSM
UniProt Q86UX6, whole entry: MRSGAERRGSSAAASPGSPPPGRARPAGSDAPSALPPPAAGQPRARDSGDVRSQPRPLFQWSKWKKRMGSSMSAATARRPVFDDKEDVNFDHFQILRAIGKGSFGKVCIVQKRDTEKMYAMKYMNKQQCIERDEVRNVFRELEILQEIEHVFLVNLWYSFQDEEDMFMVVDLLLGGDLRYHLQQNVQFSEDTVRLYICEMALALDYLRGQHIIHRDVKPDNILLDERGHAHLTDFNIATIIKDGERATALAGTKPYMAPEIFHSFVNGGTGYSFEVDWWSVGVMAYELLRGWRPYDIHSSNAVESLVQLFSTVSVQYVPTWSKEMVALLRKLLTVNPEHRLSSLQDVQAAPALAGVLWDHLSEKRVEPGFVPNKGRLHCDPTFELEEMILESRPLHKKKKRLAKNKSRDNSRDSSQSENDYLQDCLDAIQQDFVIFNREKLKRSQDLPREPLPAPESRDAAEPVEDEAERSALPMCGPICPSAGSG

How the values were obtained:
Assay in all cases: Kinase profiling, Lantha
MAP3K11 (MLK3) = MAP3K11 (MLK3) (Homo sapiens, UniProt Q16584); conditions: 1 μM, KmATP
RAF1 Y340D Y341D = RAF1 Y340D Y341D (Homo sapiens, UniProt P04049, Y340D/Y341D); conditions: 10-point CR, top 10 μM
ULK2 = ULK2 (Homo sapiens, UniProt Q8IYT8); conditions: 1 μM, KmATP
LATS2 = LATS2 (Homo sapiens, UniProt Q9NRM7); conditions: 1 μM, KmATP
CAMKK1 (Alpha) = CAMKK1 (Alpha) (Homo sapiens, UniProt Q8N5S9); conditions: 1 μM, KmATP
NUAK2 = NUAK2 (Homo sapiens, UniProt Q9H093); conditions: 1 μM, KmATP
TAOK3 (JIK) = TAOK3 (JIK) (Homo sapiens, UniProt Q9H2K8); conditions: 1 μM, KmATP
AMPK (A1/B1/G3) = AMPK (A1/B1/G3) (Homo sapiens, UniProt Q13131); conditions: 1 μM, KmATP
BMPR1A (ALK3) = BMPR1A (ALK3) (Homo sapiens, UniProt P36894)
TTK = TTK (Homo sapiens, UniProt P33981); conditions: 1 μM, KmATP
DDR2 Hu Bind = DDR2 Hu Bind (Homo sapiens, UniProt Q16832); conditions: 1 μM, KmATP
HUNK = HUNK (Homo sapiens, UniProt P57058); conditions: 1 μM, KmATP
ERN1 = ERN1 (Homo sapiens, UniProt O75460); conditions: 1 μM, KmATP
bRAF = bRAF (Homo sapiens, UniProt P15056)
STK38 = STK38 (Homo sapiens, UniProt Q15208); conditions: 1 μM, KmATP
CDK13 Cyclin K = CDK13 Cyclin K (Homo sapiens, UniProt Q14004); conditions: 1 μM, KmATP
PRKACB = PRKACB (Homo sapiens, UniProt P22694); conditions: 1 μM, KmATP
TEC = TEC (Homo sapiens, UniProt P42680); conditions: 1 μM, KmATP
IRAK3 = IRAK3 (Homo sapiens, UniProt Q9Y616); conditions: 1 μM, KmATP
MKNK2 (MNK2) = MKNK2 (MNK2) (Homo sapiens, UniProt Q9HBH9); conditions: 1 μM, KmATP
TESK1 = TESK1 (Homo sapiens, UniProt Q15569); conditions: 1 μM, KmATP
ACVR2A = ACVR2A (Homo sapiens, UniProt P27037); conditions: 1 μM, KmATP
GRK1 = GRK1 (Homo sapiens, UniProt Q15835); conditions: 1 μM, KmATP
MYO3A (MYO3 alpha) = MYO3A (MYO3 alpha) (Homo sapiens, UniProt Q8NEV4); conditions: 1 μM, KmATP
RIPK2 = RIPK2 (Homo sapiens, UniProt O43353); conditions: 1 μM, KmATP
ZAK = ZAK (Homo sapiens, UniProt Q9NYL2); conditions: 1 μM, KmATP
TGFBR2 = TGFBR2 (Homo sapiens, UniProt P37173); conditions: 1 μM, KmATP
WNK1 = WNK1 (Homo sapiens, UniProt Q9H4A3); conditions: 1 μM, KmATP
ICK = ICK (Homo sapiens, UniProt Q9UPZ9)
STK38L (NDR2) = STK38L (NDR2) (Homo sapiens, UniProt Q9Y2H1); conditions: 1 μM, KmATP
EPHA6 = EPHA6 (Homo sapiens, UniProt Q9UF33); conditions: 1 μM, KmATP
BMPR2 = BMPR2 (Homo sapiens, UniProt Q13873); conditions: 1 μM, KmATP
MAPK9 (JNK2) = MAPK9 (JNK2) (Homo sapiens, UniProt P45984); conditions: 1 μM, KmATP
STK32C (YANK3) = STK32C (YANK3) (Homo sapiens, UniProt Q86UX6); conditions: 1 μM, KmATP
CDK3/cyclin E1 = CDK3/cyclin E1 (Homo sapiens, UniProt Q00526); conditions: 1 μM, KmATP
STK17B (DRAK2) = STK17B (DRAK2) (Homo sapiens, UniProt O94768); conditions: 1 μM, KmATP
TAOK1 = TAOK1 (Homo sapiens, UniProt Q7L7X3); conditions: 1 μM, KmATP
FYN A = FYN A (Homo sapiens, UniProt P06241)
NLK = NLK (Homo sapiens, UniProt Q9UBE8); conditions: 1 μM, KmATP

Structure (SMILES): Cc1nc(C(F)(F)F)c2c(C(N)=O)c(N)n(-c3c(C)ccc(O)c3C)c2n1 (single isomer, unassigned)
- MEAN INHIBITION (MAP3K11 (MLK3)): −1.121%
- IC50 (RAF1 Y340D Y341D): 49 nM
- MEAN INHIBITION (ULK2): 0.726%
- MEAN INHIBITION (LATS2): 11.623%
- MEAN INHIBITION (CAMKK1 (Alpha)): −4.586%
- MEAN INHIBITION (NUAK2): −1.795%
- MEAN INHIBITION (TAOK3 (JIK)): 1.585%
- MEAN INHIBITION (AMPK (A1/B1/G3)): 7.831%
- MEAN INHIBITION (BMPR1A (ALK3); 1 μM, KmATP): 72.857%
- IC50 (BMPR1A (ALK3); 10-point CR, top 10 μM): 478 nM
- MEAN INHIBITION (TTK): −3.632%
- MEAN INHIBITION (DDR2 Hu Bind): −0.431%
- MEAN INHIBITION (HUNK): 11.675%
- MEAN INHIBITION (ERN1): 2.657%
- MEAN INHIBITION (bRAF; 1 μM, KmATP): 78.905%
- IC50 (bRAF; 10-point CR, top 10 μM): 138 nM
- MEAN INHIBITION (STK38): 4.799%
- MEAN INHIBITION (CDK13 Cyclin K): 11.305%
- MEAN INHIBITION (PRKACB): 3.852%
- MEAN INHIBITION (TEC): −5.136%
- MEAN INHIBITION (IRAK3): 14.866%
- MEAN INHIBITION (MKNK2 (MNK2)): 2.415%
- MEAN INHIBITION (TESK1): −10.686%
- MEAN INHIBITION (ACVR2A): 49.464%
- MEAN INHIBITION (GRK1): 3.488%
- MEAN INHIBITION (MYO3A (MYO3 alpha)): 10.901%
- MEAN INHIBITION (RIPK2): 17.820%
- MEAN INHIBITION (ZAK): −1.651%
- MEAN INHIBITION (TGFBR2): 13.412%
- MEAN INHIBITION (WNK1): 1.189%
- MEAN INHIBITION (ICK; 1 μM, KmATP): 90.275%
- IC50 (ICK; 10-point CR, top 10 μM): 80 nM
- MEAN INHIBITION (STK38L (NDR2)): 12.492%
- MEAN INHIBITION (EPHA6): −0.902%
- MEAN INHIBITION (BMPR2): −4.214%
- MEAN INHIBITION (MAPK9 (JNK2)): 3.226%
- MEAN INHIBITION (STK32C (YANK3)): 0.307%
- MEAN INHIBITION (CDK3/cyclin E1): −4.312%
- MEAN INHIBITION (STK17B (DRAK2)): 9.903%
- MEAN INHIBITION (TAOK1): 13.755%
- MEAN INHIBITION (FYN A; 1 μM, KmATP): 12.744%
- IC50 (FYN A; 10-point CR, top 10 μM): 2410 nM
- MEAN INHIBITION (NLK): 5.482%
